Results as given in patent US9944618B2, “Inhibiting neurotransmitter reuptake” (Mayo Foundation for Medical Education and Research, priority 2013, dated 2018).

By UniProt entry, the sequences of proteins in these tests, tags left out. Where a name states a change or a piece, a line headed by the entry shows the natural chain unless it says otherwise.
UniProt P31645, whole entry: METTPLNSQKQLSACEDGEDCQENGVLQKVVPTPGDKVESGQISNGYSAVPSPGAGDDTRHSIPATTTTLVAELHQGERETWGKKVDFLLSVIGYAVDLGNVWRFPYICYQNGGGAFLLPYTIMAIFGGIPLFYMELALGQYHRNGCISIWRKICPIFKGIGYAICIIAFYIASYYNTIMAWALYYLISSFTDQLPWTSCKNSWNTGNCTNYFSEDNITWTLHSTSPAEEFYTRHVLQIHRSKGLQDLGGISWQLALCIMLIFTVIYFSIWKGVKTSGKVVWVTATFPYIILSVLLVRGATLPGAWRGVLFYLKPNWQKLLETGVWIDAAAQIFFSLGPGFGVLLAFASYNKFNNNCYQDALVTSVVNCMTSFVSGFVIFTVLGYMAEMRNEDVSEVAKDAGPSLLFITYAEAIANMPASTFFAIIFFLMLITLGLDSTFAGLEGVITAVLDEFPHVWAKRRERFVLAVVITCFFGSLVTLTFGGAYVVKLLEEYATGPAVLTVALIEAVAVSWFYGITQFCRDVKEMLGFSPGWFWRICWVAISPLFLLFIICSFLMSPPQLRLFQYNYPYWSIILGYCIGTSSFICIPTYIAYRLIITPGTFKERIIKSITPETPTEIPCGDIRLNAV
UniProt Q12809: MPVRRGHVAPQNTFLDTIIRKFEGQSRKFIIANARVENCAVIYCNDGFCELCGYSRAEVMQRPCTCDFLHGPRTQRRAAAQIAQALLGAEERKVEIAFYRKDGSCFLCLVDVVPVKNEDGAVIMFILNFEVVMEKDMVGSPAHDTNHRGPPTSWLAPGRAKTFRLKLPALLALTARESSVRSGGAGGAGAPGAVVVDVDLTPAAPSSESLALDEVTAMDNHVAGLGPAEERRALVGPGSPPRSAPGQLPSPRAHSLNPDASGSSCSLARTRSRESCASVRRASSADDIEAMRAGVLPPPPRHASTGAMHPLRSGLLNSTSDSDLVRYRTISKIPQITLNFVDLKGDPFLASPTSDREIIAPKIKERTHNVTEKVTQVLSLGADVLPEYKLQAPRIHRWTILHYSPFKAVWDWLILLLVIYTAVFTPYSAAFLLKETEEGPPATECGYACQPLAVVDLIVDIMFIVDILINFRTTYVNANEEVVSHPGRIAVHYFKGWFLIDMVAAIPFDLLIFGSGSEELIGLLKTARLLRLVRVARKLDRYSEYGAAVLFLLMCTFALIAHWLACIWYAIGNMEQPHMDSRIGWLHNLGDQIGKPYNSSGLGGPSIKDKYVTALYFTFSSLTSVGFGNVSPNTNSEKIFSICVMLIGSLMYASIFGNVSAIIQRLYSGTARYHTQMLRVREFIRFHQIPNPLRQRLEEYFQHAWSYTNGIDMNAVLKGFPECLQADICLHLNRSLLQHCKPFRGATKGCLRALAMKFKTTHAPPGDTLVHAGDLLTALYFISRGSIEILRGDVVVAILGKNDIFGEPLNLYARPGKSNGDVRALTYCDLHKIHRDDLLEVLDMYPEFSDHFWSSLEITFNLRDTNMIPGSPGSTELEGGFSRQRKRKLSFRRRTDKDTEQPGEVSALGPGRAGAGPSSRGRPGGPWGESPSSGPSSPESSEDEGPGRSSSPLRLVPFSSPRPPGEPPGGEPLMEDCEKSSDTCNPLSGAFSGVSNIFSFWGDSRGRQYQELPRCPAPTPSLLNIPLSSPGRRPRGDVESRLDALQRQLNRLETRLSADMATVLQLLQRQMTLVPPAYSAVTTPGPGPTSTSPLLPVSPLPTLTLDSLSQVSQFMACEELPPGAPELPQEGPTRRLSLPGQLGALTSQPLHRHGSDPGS
UniProt P23975, whole entry: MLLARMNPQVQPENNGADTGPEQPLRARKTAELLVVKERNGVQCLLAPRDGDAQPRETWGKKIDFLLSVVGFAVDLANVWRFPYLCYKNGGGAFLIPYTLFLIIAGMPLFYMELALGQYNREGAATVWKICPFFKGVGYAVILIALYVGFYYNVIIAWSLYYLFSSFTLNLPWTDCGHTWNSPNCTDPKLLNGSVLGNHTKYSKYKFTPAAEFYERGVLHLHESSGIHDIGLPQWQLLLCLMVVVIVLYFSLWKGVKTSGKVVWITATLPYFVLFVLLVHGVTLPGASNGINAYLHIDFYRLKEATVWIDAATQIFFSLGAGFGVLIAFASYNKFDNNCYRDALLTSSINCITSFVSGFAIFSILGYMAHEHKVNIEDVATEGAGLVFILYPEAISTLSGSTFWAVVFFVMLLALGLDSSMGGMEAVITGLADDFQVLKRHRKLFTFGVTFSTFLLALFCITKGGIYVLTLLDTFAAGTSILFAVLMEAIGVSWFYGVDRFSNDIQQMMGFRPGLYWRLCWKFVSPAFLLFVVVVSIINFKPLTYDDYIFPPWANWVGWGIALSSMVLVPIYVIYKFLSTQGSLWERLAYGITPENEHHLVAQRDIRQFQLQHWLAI
UniProt Q01959, whole entry: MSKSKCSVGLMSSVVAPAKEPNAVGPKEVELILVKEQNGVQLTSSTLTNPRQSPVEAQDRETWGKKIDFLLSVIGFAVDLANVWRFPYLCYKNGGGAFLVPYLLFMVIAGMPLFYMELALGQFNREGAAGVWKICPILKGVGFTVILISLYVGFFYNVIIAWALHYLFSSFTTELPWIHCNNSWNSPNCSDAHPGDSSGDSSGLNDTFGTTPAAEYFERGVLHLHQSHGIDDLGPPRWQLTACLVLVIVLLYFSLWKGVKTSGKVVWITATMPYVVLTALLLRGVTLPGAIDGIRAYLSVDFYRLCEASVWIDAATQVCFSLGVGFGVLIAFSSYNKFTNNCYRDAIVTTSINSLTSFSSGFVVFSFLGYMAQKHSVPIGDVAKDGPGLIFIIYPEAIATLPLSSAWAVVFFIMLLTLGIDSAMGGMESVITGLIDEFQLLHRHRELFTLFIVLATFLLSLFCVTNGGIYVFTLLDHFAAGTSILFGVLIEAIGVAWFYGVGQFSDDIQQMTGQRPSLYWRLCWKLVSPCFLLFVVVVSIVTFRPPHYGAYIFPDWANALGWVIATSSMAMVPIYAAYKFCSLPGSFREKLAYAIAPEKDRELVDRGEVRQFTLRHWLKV

Legend:
[1] = target: human serotonin transporter (Homo sapiens (Human), UniProt P31645); experiment: Human SERT (serotonin transporter) uptake assay; details: read-out: hSERT Ki
hERG = hERG (Homo sapiens (Human), UniProt Q12809); experiment: Human ERG (hERG) assay, hERG currents in hERG-expressing CHO cells; format: cell-based; details: selected reference compounds
[2] = target: human norepinephrine transporter (Homo sapiens (Human), UniProt P23975); experiment: Human NET (norepinephrine transporter) uptake assay; format: cell-based; details: selected reference compounds, HEK293F cells, Cheng-Prusoff; read-out: hNET Ki
[3] = target: human dopamine transporter (Homo sapiens (Human), UniProt Q01959); experiment: Human DAT (dopamine transporter) uptake assay; format: cell-based; details: selected reference compounds, HEK293F cells, Cheng-Prusoff; read-out: hDAT Ki

## CN(C)C[C@H](c1ccc2ccccc2c1)[C@H](O)c1ccccc1 [Compound 83]
[1]
  Ki: 5.1 nM

## CNCCCN1c2ccccc2CCc2ccccc21 [compound 174]
hERG
  IC50: 13000 nM

## CC(NC(C)(C)C)C(=O)c1cccc(Cl)c1 (stereo not drawn) [compound 176]
[2]
  Ki: 3640 nM

## CN(C)CC(c1ccc(O)cc1)C1(O)CCCCC1 (stereo not drawn) [compound 181]
[2]
  Ki: 668 nM
[1]; selected reference compounds, HEK293F cells, Cheng-Prusoff
  Ki: 4.1 nM
[3]
  Ki: 3730 nM

Like-named read-outs stand apart in the source and are kept apart here.
